Data published in patent US4164571A, “Medicament which antagonizes the action of gastrin and related polypeptides” (Commissariat a l'Energie Atomique, priority 1976, dated 1979).

Key:
[1] = target: T1, specific receptors of the gastrin (cyclasic adenylate activity) (Rattus norvegicus, UniProt P30553); assay: cyclasic adenylate activity of rat fundus membrane fractions; type: biochemical; conditions: dose 10^-8 M
T1 construct: plasma membranes were prepared from a male white rat of the Wistar CF strain; from tissue; host or cells: rat (Wistar CF) fundal gastric mucosa, plasma membrane fraction of density 1.12-1.14 g/cm3
T1 sequence (P30553 1-452): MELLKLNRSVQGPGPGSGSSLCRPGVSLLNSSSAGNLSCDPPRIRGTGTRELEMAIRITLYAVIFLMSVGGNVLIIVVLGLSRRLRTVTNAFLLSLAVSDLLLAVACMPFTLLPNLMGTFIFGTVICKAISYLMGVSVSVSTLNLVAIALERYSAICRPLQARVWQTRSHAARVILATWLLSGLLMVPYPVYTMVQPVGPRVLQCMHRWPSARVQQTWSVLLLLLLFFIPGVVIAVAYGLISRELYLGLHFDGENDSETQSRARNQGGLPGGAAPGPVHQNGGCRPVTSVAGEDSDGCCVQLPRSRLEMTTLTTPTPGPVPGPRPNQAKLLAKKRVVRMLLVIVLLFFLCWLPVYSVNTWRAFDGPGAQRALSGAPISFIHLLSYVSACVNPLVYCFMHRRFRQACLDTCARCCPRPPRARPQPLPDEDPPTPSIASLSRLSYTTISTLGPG
Procedure: Initially plasma membranes were prepared from a male white rat of the Wistar CF strain weighing 250±50 g, stabilised beforehand for one month in an animal house by a standard feed of autoclaved biscuits 113 UAR. […] The stomach was removed, opened in accordance with the greater curvature and washed in the following medium containing 0.25 M of saccharose, 30 nM of trihydroxymethylaminomethane - hydrochloric acid buffer at pH 7.4 and a temperature of 0° to 4° C. […]
The microsomal mass was diluted in 50 ml of a medium containing 0.25 M of saccharose and 3 mM of trihydroxymethylaminomethane-hydrochloric acid buffer at pH 7.4 and a temperature of 0° to 4° C., after which it underwent zonal centrifuging in a Spinco 50 L Beckman refrigerated ultracentrifuge with Ti 14 roto in a 7% linear gradient (1.04 g/cm^3) at 60% (1.30 g/cm^3) of saccharose up to isopycnic equilibrium, i.e. 15 h at 20,000 r.p.m. and 4° C. After equilibration the gradient was collected in 25 ml fractions and the densities were determined by refractometry. […]

[2] = target: T2, biological receptor sites of the gastrin (Rattus norvegicus, UniProt P30553); assay: fixing of tritiated gastrin I to plasma membranes of the fundus of the rat; type: binding; conditions: tritiated gastrin I 10^-8 M, gastrin I-NPS 2.10^-8 M
T2 construct: plasma membranes were prepared from a male white rat of the Wistar CF strain; from tissue; host or cells: rat (Wistar CF) fundal gastric mucosa, plasma membrane fraction of density 1.12-1.14 g/cm3
T2 sequence (P30553 1-452): T1 sequence (P30553 1-452)

[3] = tested on: mice; conditions: i.p., logit-log paper
Source text: All the dead or surviving animals are autopsied, the stomach and the small intestine are examined for heamorrhages or ulcers.

stimulation of the cyclasic adenylate activity [1]	reduction of equilibrium plateau of tritiated gastrin I fixed to plasma membranes [2]	Substance	LD 50 [3]
no stimulation	about 70%	orthonitrophenyl sulphenylated gastrin I [gastrin I-NPS]	–
–	–	Boc-Gly-Trp-(NPS)-Met-Aspe-Phe-NH2 [pentagastrin-NPS]	higher than 3.2 mg/kg
